The numbers were not newly measured in patent US5872104A, “Combinations and methods for reducing antimicrobial resistance” (Oridigm Corporation, priority 1994, dated 1999), which cites them from elsewhere.

In this data set the test system is Streptococcus agalactactiae (group B). The following applies: in µg/mL; cited from earlier work.

With `CC[C@H]1OC(=O)[C@H](C)[C@@H](O[C@H]2C[C@@](C)(OC)[C@@H](O)[C@H](C)O2)[C@H](C)[C@@H](O[C@@H]2O[C@H](C)C[C@H](N(C)C)[C@H]2O)[C@](C)(O)C[C@@H](C)CN(C)[C@H](C)[C@@H](O)[C@]1(C)O` [Azithromycin], the MIC90 is listed as 0.5.
